Values of other authors, collected in patent US5480969A, “Antagonists of LHRH” (The Administrators of the Tulane Educational Fund, priority 1992, dated 1996).

System: rat mast cells
Details: cited from earlier work; for Histamine release ED50: Table V

Substance	Histamine release ED50 [µg/mL]	other results
[N-Ac-D-2-Nal^1, D-pClphe^2, D-3-Pal^3, c-pzACAla^5, D-PicLys^6, ILys^8, D-Ala^10 ] LHRH [Analog 10 (Table III)]	–	ED50 for hist. release (Table III parent analogs from literature): 49 ± 4.8 µg/mL
[N-Ac-D-2-Nal^1, D-pClPhe^2, D-3-Pal^3, Arg^5, D-Glu(AA)^6, D-Ala^10 ] LHRH [Nal-Glu]	1.6	–
[N-Ac-D-2-Nal^1, D-pClPhe^2, D-3-Pal^3, Arg^5, D-3-Pal^6, D-Ala^10 ] LHRH	–	histamine release (in words) (background): undesirable
[N-Ac-D-2-Nal^1 ; D-pFPhe^2, D-Trp^3, D-Arg^6 ] LHRH [Nal-Arg]	0.17	–
